Columns and labels:
[1] = molecular target: T1, E. coli homoserine transsuccinylase (MetA) variant of plasmid pBaBmetAext2, amino acids from 297 onwards SerTyrIleHisGlnTyrLeuLeuValAsnAsnSerThrGluLeuTrpMetHisT (Escherichia coli, UniProt P07623, DELINS297-309SYIHQYLLVNNSTELWMHTRLIKRPHCDEWQGGA); assay: Homoserine transsuccinylase activity in cell extract, inhibition by L-methionine (decrease in extinction at 232 nm); details: activity without L-methionine = 100%, pH 7.6, 1 mM homoserine, 0.1 mM succinyl-CoA
[2] = molecular target: E. coli homoserine transsuccinylase (MetA) variant of plasmid pBaBmetAext, amino acids from 297 onwards SerTyrIleHisHisTyrLeuLeuValAsnAsnSerThrGluLeuTrpMetHisTh (Escherichia coli, UniProt P07623, DELINS297-309SYIHHYLLVNNSTELWMHTRLIKRPHCDEWQGGA); assay: Homoserine transsuccinylase activity in cell extract, inhibition by SAM (DTNB, absorption at 412 nm); details: activity without SAM = 100%, pH 7.5, 3 mM homoserine, 0.3 mM succinyl-CoA
[3] = molecular target: T1, E. coli homoserine transsuccinylase (MetA) variant of plasmid pBaBmetAext2, amino acids from 297 onwards SerTyrIleHisGlnTyrLeuLeuValAsnAsnSerThrGluLeuTrpMetHisT; assay: as above; details: activity without SAM = 100%, pH 7.5, 3 mM homoserine, 0.3 mM succinyl-CoA

Protein sequences, listed by entry. Tags and fused reporters are not part of them.
UniProt P07623, whole entry, looked up, stated change not applied: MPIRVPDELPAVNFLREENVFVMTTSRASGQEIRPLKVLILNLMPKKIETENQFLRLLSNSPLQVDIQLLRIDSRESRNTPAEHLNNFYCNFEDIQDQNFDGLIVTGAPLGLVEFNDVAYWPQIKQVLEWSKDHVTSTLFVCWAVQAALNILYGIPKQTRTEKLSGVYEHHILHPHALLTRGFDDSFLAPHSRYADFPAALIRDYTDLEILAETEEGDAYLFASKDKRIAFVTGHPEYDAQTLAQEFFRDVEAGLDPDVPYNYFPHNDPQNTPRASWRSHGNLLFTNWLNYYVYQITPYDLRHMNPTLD

| Structure (SMILES) | Activity (%) in the presence of 1 mM L-methionine [1] | Activity (%) in the presence of 1 mM SAM [2] | Activity (%) in the presence of 1 mM SAM [3] |
| --- | --- | --- | --- |
| CSCC[C@H](N)C(=O)O [L-methionine] | 90% | – | – |
| C[S+](CC[C@H](N)C(=O)[O-])C[C@H]1O[C@@H](n2cnc3c(N)ncnc32)[C@H](O)[C@@H]1O (stereo partly drawn) [SAM, S-Adenosylmethionine] | – | 75% | 99% |
